Experimental findings from PubChem BioAssay AID743238 (Broad Institute, 2013) are described below.

Each structure is given as a SMILES string. The entries are a selection whose mix differs from that of the whole data set. Activity calls are given as the source filed them.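 Rule for the calls: active = mean normalized replicate activation at least 10% and every replicate at or above 10%; inconclusive = only one of the two criteria met; inactive = mean below 10% and not all replicates reach 10%.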

This assay can be described thus: activators of inactive X chromosome reactivation, primary screen, imaging, XiGFP fibroblasts, GFP high-content imaging, set 2 (AID 743238).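 Note: 0% = median of on-plate neutral control wells and 100% = ellipticine 6 µM median.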 The following applies: XiGFP mouse fibroblasts, % GFP-positive cells imaging, 3 d; at 7.58 µM; active compounds read high; cells co-treated with 5-aza-dC sensitizer; scaled so ellipticine positive control = 100%. Summed up: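 Material: SV40-immortalized XiGFP fibroblast cells, line 68-5-11 | Buffer or medium: DMEM containing 5-aza-dC | Dosing: One concentration, pinned | Times: 3 d treatment, 15 min room-temperature fixation | Controls: Ellipticine 6 µM positive control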
Take `CCCN1CCC(Nc2cc(OC)cc(OC)c2)CC1`: the activation is inactive: -0.0135%.
As to `Cc1cc(N(CCCl)CCCl)ccc1C=O`, the activation was inactive: 0.178%.
Next, `C/C(N)=N\P(=O)(Oc1ccccc1)Oc1ccccc1`: inactive: 0.278%.
As for `CN(C)C1(CNC(=O)c2cccc(C#N)c2)CCCCC1`, the activation is inactive: 0.009%.
Next, `CC(C)(C)n1nnnc1C(c1cccc2ccccc12)N1CCC(n2c(=O)[nH]c3ccccc32)CC1` (stereo not drawn): inactive: 0.003%; `CC(C)(C)OC(=O)N1CCC(N(C(=O)c2ccccc2)c2ccc(Cl)cc2)CC1`: inactive: -0.083%; `N#Cc1ccc(C(=O)NCC2(N3CCCCC3)CCCCC2)cc1`: inactive: 0.082%.
As for `COc1cccc(C(c2nnnn2C(C)(C)C)N2CCC(n3c(=O)[nH]c4ccccc43)CC2)c1OC` (stereo not drawn), the activation was inactive: 0.181%.
As for `CCOC(=O)N1CCC(Nc2ccc(C)cc2)CC1`, the activation is inactive: 0.17%.
In the case of `CCCCn1nnnc1C(c1cccc(OC)c1OC)N1CCC(n2c(=O)[nH]c3ccccc32)CC1` (stereo not drawn) it was inactive: 0.253%; in that of `O=c1[nH]c2ccccc2n1C1CCN(C(c2cccs2)c2nnnn2C2CCCC2)CC1` (stereo not drawn), inactive: -0.139%.
With `O=C(OC1CN2CCC1CC2)C1c2ccccc2C=Cc2ccccc21` (stereo not drawn), the activation was inactive: 0.448%.
Next, `O=C(NCC1(N2CCOCC2)CCCCC1)c1cc(Br)ccc1Cl`: inactive: 0.0945%; `COc1cc(C(=O)NCC2(N3CCOCC3)CCCCC2)cc(OC)c1C`: inactive: 2.25%.
For the molecule `CCCCn1nnnc1C(c1ccccc1)N1CCC(n2c(=O)[nH]c3ccccc32)CC1` (stereo not drawn), the activation was inactive: 0.168%.
On to `O=c1[nH]c2ccccc2n1C1CCN(C(c2ccnc3ccccc23)c2nnnn2C2CCCC2)CC1` (stereo not drawn), for which the activation is inactive: -0.171%.
Next, `COc1ccc(C(=O)NCC2(N3CCOCC3)CCCCC2)cc1OC`: inactive: 0%; `O=c1[nH]c2ccccc2n1C1CCN(C(c2cccs2)c2nnnn2C2CCCCC2)CC1` (stereo not drawn): inactive: 0.093%.
In the case of `COc1cc(OC)cc(C(=O)NCC2(N3CCOCC3)CCCCC2)c1` it was inactive: -0.0065%.
On to `COc1cccc(C(=O)N(c2cc(C)cc(C)c2)C2CCN(C(=O)OC(C)(C)C)CC2)c1`, for which the activation is inactive: 0.003%.
With `CN1CCC(Nc2ccc(Cl)cc2)CC1`, the activation is inactive: 0.159%.
Next, `CN1CCC(Nc2ccc(F)c(Cl)c2)CC1`: inactive: 0.173%; `CCCOc1ccc(C(=O)NCC2(N(C)C)CCCCC2)cc1`: inactive: -0.004%.
In the case of `O=c1[nH]c2ccccc2n1C1CCN(C(c2cc3ccccc3o2)c2nnnn2C2CCCC2)CC1` (stereo not drawn) it was inactive: -0.0805%; in that of `O=C(O)C1(Nc2ccccc2)CCN(Cc2ccccc2)CC1`, inactive: 0.0685%.
In the case of `NN(c1ccccc1)C1CCN(CCc2ccccc2)CC1` it was inactive: 0.033%; in that of `CC(C)(C)OC(=O)N1CCC(Nc2ccccc2)CC1`, inactive: 0.0305%.
As to `CC(C)(C)n1nnnc1C(c1ccnc2ccccc12)N1CCC(n2c(=O)[nH]c3ccccc32)CC1` (stereo not drawn), the activation was inactive: -0.0575%.
Next, `COc1ccc(C(c2nnnn2C2CCCCC2)N2CCC(n3c(=O)[nH]c4ccccc43)CC2)cc1` (stereo not drawn): inactive: 0.98%; `CCN1CCC(Nc2cccc(F)c2)CC1`: inactive: 0.539%.
As to `Cc1ccccc1NC1(C#N)CCN(Cc2ccccc2)CC1`, the activation was inactive: 0.435%.
Next, `Cn1c(=O)[nH]cc(N(CCCl)CCCl)c1=O`: inactive: -0.0215%.
In the case of `CN(C)c1ccc(C(=O)NCC2(N3CCCCC3)CCCCC2)cc1` it was inactive: 0.232%.
In the case of `O=C(NCC1(N2CCCCC2)CCCCC1)c1ccco1` it was inactive: 0.429%.
As for `O=c1[nH]c2ccccc2n1C1CCN(C(c2ccnc3ccccc23)c2nnnn2C2CCCCC2)CC1` (stereo not drawn), the activation is inactive: -0.014%.
In the case of `COc1cc(OC)cc(C(=O)NCC2(N3CCCCC3)CCCCC2)c1`, the activation was inactive: 0.0195%.
Turning to `CCC(c1nnnn1C1CCCCC1)N1CCC(n2c(=O)[nH]c3ccccc32)CC1` (stereo not drawn), the activation was inactive: 0.397%.
In the case of `CC(=O)N(c1ccccc1)C1CCNCC1` it was inactive: 0.011%; in that of `COc1cccc(C(c2nnnn2C2CCCCC2)N2CCC(n3c(=O)[nH]c4ccccc43)CC2)c1OC` (stereo not drawn), inactive: 0.141%; in that of `Cc1ccc(NC2(C#N)CCN(Cc3ccccc3)CC2)cc1`, inactive: -0.047%.
For `Cc1ccc(C(=O)NCC2(N3CCCCC3)CCCCC2)o1`, the activation was inactive: -0.16%.
As for `O=c1[nH]c2ccccc2n1C1CCN(C(c2ccccc2)c2nnnn2C2CCCCC2)CC1` (stereo not drawn), the activation is inactive: -0.0985%.
In the case of `O=c1[nH]c2ccccc2n1C1CCN(C(c2cccc3ccccc23)c2nnnn2C2CCCC2)CC1` (stereo not drawn) it was inactive: 0.0375%; in that of `COc1cc(C(=O)NCC2(N(C)C)CCCCC2)ccc1OC(F)F`, inactive: 0.0475%.
For the molecule `CCOC(=O)N1CCC(Nc2cccc(C)c2)CC1`, the activation is inactive: 0.0115%.
In the case of `CCOc1ccc(C)cc1CN(CCCl)CCCl` it was inactive: 0.0315%; in that of `CC(C)(C)n1nnnc1C(c1ccccc1)N1CCC(n2c(=O)[nH]c3ccccc32)CC1` (stereo not drawn), inactive: -0.033%.
On to `CCOC(=O)N1CCC(Nc2ccc(F)cc2)CC1`, for which the activation is inactive: 0.079%.
In the case of `O=C(NCC1(N2CCCCC2)CCCCC1)c1ccc(F)cc1` it was inactive: 0.502%; in that of `O=P1(N(CCCl)CCCl)SCCCS1`, inactive: 0.021%; in that of `CCCCOc1ccc(C(=O)NCC2(N3CCOCC3)CCCCC2)cc1`, inactive: 0.148%.
In the case of `Cc1cc(C)cc(N(C(=O)c2ccccc2)C2CCN(C(=O)OC(C)(C)C)CC2)c1` it was inactive: -0.036%; in that of `O=c1[nH]c2ccccc2n1C1CCN(C(c2ccccc2OC(F)(F)F)c2nnnn2C2CCCCC2)CC1` (stereo not drawn), inactive: -0.06%.
In the case of `O=C(NCC1(N2CCCCC2)CCCCC1)c1ccc(Cl)nc1`, the activation is inactive: -0.223%.
For `CCCCn1nnnc1C(c1ccc(OC)cc1)N1CCC(n2c(=O)[nH]c3ccccc32)CC1` (stereo not drawn), the activation is inactive: 0.0935%.
In the case of `CCOC(=O)N1CCC(Nc2ccc(OC)cc2)CC1`, the activation is inactive: 0.077%.
In the case of `COc1ccc(Cl)cc1C(=O)NCC1(N2CCOCC2)CCCCC1` it was inactive: 0.059%.
Consider `O=c1[nH]c2ccccc2n1C1CCN(C(c2cc3ccccc3o2)c2nnnn2C2CCCCC2)CC1` (stereo not drawn), for which the activation is inactive: 0.028%.
`O=C(NCC1(N2CCCCC2)CCCCC1)c1ccc(Cl)s1`: the activation is inactive: -0.0735%.
In the case of `N#CC1(Nc2ccccc2)CCN(Cc2ccccc2)CC1` it was inactive: -0.068%; in that of `CCCCn1nnnc1C(c1cccs1)N1CCC(n2c(=O)[nH]c3ccccc32)CC1` (stereo not drawn), inactive: 0.183%.
In the case of `CCCCn1nnnc1C(CC)N1CCC(n2c(=O)[nH]c3ccccc32)CC1` (stereo not drawn) it was inactive: -0.0395%; in that of `O=C(NCC1(N2CCCCC2)CCCCC1)c1cccs1`, inactive: -0.0905%.
Next, `O=C(NCC1(N2CCCCC2)CCCCC1)c1ccc(=O)[nH]c1`: inactive: 0.124%.
Turning to `CCC(c1nnnn1C1CCCC1)N1CCC(n2c(=O)[nH]c3ccccc32)CC1` (stereo not drawn), the activation is inactive: -0.0135%.
As for `COc1ccc(C(=O)NCC2(N3CCCCC3)CCCCC2)c(OC)c1OC`, the activation was inactive: -0.0125%.
Next, `CC(C)(C)OC(=O)N1CCC(N(C(=O)c2ccccc2)c2ccc(F)cc2)CC1`: inactive: -0.0245%.
In the case of `COc1ccc(C(=O)NCC2(N3CCCCC3)CCCCC2)cc1` it was inactive: 0.0585%; in that of `Cc1cccc(NC2(C#N)CCN(Cc3ccccc3)CC2)c1`, inactive: -0.059%; in that of `CSc1ccccc1C(=O)NCC1(N2CCCCC2)CCCCC1`, inactive: 0.262%.
For the molecule `O=C(NCC1(N2CCCCC2)CCCCC1)c1cncc(Br)c1`, the activation is inactive: -0.0545%.
`CCCOc1ccc(C(=O)NCC2(N(C)C)CCCCC2)cc1OC`: the activation is inactive: 0.0125%.
As for `Cc1ccc(C(=O)NCC2(N(C)C)CCCCC2)o1`, the activation is inactive: -0.0465%.
In the case of `COc1ccc(C(c2nnnn2C2CCCC2)N2CCC(n3c(=O)[nH]c4ccccc43)CC2)cc1` (stereo not drawn), the activation is inactive: 0.038%.
Next, `CN(C)c1cccc(C(=O)NCC2(N3CCCCC3)CCCCC2)c1`: inactive: 0.0015%.
In the case of `COc1ccc(CN(CCCl)CCCl)cc1Cl`, the activation was inactive: 0.12%.
Next, `CC(C)c1ccc(NC2CCN(C(=O)OC(C)(C)C)CC2)cc1`: inactive: 0.0525%; `CCCCn1nnnc1C(c1ccnc2ccccc12)N1CCC(n2c(=O)[nH]c3ccccc32)CC1` (stereo not drawn): inactive: 0.003%.
For `CCC(c1nnnn1C(C)(C)C)N1CCC(n2c(=O)[nH]c3ccccc32)CC1` (stereo not drawn), the activation was inactive: 0.0875%.
Next, `O=C(NCC1(N2CCOCC2)CCCCC1)c1cc(F)c(F)cc1Cl`: inactive: 0.0175%; `COc1cc(OC)c(C(=O)NCC2(N(C)C)CCCCC2)cc1OC`: inactive: -0.0315%; `O=C(NCC1(N2CCCCC2)CCCCC1)c1cccc(C(F)(F)F)c1`: inactive: 0.149%.
Regarding `CCCCn1nnnc1C(c1cccc2ccccc12)N1CCC(n2c(=O)[nH]c3ccccc32)CC1` (stereo not drawn), the activation is inactive: -0.054%.
Next, `CN1CCN(CCOC(=O)C(O)(c2ccccc2)c2ccccc2)CC1`: inactive: -0.0475%.
Regarding `COc1ccc(NC2CCN(C(=O)OC(C)(C)C)CC2)cc1`, the activation is inactive: 0.37%.
Next, `CC(C)c1ccc(C(=O)NCC2(N3CCOCC3)CCCCC2)cc1`: inactive: -0.123%; `COc1cc(C(=O)NCC2(N3CCCCC3)CCCCC2)ccc1OC(F)F`: inactive: 0.431%.
Next, `O=C(NCC1(N2CCCCC2)CCCCC1)c1ccc(OC(F)F)cc1`: inactive: -0.0785%; `CC(C)(C)n1nnnc1C(c1ccccc1OC(F)(F)F)N1CCC(n2c(=O)[nH]c3ccccc32)CC1` (stereo not drawn): inactive: -0.0305%.
Next, `O=C(NCC1(N2CCCCC2)CCCCC1)c1cccc([N+](=O)[O-])c1`: inactive: 0.324%; `CSc1ccc(C(=O)NCC2(N3CCOCC3)CCCCC2)cc1`: inactive: 0.022%.
Turning to `O=c1[nH]c2ccccc2n1C1CCN(C(c2ccccc2OC(F)(F)F)c2nnnn2C2CCCC2)CC1` (stereo not drawn), the activation was inactive: 0.233%.
In the case of `CCN1CCC(Nc2ccc(Cl)cc2)CC1` it was inactive: 0.139%.
